# From PMC11787510
# Tests used:
# B50 (neuromodulin) = B50 (neuromodulin) (UniProt P17677); details: cited from earlier work
# [1] = biological target: TSC2 peptide (Homo sapiens) (UniProt P49815); details: cited from earlier work
# Caldesmon = Caldesmon (UniProt Q05682); details: cited from earlier work
# Strep-GFP-tagged TSC2 = Strep-GFP-tagged TSC2 (UniProt P49815); test: co-IP; HiBiT lytic assay as a competition: purified His-CaM (0, 0.17, 0.25, 0.50, 1.0, 2.0, 4.0, 6.0 μM) with 100 μM CaCl2 added to the mixed lysates with Strep-GFP-TSC2 and HiBiT-Rheb; IC50 from the average of two independent experiments
substance,measurement,setting,value
Calmodulin (from UniProt P0DP23),Kd,B50 (neuromodulin),4200 nM
same,Kd,[1],1000 nM
same,Kd,Caldesmon,800 nM
"His-tagged calmodulin (His-CaM), wild type (from UniProt P0DP24 2-149) (natural protein)",IC50,Strep-GFP-tagged TSC2,1100 nM
